Target: ALK (Homo sapiens (Human), UniProt Q9UM73)
Assay: Ambit kinase binding assay (ALK)
Settings: read-out: ALK inhibitory activities in the Ambit assay (IC50)

The chains behind the UniProt entries cited, without tags or fusion partners. Residues count along the entry.
UniProt Q9UM73, 19-1620 limits assumed: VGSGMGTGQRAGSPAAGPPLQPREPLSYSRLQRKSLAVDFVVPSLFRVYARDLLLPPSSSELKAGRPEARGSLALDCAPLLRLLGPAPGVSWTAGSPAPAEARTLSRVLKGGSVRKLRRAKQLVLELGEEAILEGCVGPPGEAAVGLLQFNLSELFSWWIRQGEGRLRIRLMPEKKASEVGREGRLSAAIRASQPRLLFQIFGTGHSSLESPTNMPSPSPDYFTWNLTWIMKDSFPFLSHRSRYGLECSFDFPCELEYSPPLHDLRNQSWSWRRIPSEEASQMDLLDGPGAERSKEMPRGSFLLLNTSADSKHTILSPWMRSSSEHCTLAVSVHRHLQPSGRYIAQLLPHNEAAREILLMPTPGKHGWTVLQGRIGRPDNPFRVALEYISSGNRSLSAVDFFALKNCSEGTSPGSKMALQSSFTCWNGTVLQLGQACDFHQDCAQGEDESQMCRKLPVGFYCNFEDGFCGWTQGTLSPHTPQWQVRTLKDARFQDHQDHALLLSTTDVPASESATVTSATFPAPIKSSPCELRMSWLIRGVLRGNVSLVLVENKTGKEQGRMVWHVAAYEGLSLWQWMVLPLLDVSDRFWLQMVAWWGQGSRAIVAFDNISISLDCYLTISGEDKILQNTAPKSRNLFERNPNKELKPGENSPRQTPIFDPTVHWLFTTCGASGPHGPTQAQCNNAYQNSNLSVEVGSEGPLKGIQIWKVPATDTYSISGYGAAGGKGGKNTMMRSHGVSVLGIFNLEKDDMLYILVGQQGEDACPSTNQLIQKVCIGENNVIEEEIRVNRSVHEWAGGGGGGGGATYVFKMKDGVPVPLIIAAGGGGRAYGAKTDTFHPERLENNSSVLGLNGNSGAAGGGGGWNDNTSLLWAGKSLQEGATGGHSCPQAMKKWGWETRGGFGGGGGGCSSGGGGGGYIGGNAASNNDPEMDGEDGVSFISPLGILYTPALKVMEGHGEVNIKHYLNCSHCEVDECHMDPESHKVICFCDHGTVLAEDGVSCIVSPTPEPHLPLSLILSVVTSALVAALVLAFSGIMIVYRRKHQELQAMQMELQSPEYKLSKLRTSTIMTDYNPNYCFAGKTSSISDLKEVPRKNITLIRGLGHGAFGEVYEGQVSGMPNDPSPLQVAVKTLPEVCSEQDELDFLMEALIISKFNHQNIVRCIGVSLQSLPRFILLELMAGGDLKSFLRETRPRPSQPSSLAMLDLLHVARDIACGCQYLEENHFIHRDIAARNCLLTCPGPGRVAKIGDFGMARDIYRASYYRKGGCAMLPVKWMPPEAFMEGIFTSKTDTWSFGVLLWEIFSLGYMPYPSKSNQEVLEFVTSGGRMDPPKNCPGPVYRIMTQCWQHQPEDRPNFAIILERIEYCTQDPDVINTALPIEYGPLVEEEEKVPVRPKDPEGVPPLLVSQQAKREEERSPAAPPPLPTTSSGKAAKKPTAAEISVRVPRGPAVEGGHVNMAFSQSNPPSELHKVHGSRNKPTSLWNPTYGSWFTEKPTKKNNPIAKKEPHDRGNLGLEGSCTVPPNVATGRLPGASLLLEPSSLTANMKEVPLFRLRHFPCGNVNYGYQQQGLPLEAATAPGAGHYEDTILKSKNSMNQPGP

IC50: 17 nM
Compound: CNC(=O)c1ccc(NC(=O)c2cc(OC(C)c3c(Cl)ccc(F)c3Cl)c(N)nn2)cc1 (stereo not shown)

Source: US9126947B2, “Substituted pyridazine carboxamide compounds” (Xcovery Holding Company LLC, priority 2010, dated 2015)
